In ChEMBL document CHEMBL1130471, “RES-701-1/endothelin-1 hybrid peptide having a potent binding activity for type B receptor” (Bioorg Med Chem Lett, 1997):

Biological target: T1, Endothelin receptor type B (Bos taurus, UniProt P28088)
T1 sequence (P28088 whole entry): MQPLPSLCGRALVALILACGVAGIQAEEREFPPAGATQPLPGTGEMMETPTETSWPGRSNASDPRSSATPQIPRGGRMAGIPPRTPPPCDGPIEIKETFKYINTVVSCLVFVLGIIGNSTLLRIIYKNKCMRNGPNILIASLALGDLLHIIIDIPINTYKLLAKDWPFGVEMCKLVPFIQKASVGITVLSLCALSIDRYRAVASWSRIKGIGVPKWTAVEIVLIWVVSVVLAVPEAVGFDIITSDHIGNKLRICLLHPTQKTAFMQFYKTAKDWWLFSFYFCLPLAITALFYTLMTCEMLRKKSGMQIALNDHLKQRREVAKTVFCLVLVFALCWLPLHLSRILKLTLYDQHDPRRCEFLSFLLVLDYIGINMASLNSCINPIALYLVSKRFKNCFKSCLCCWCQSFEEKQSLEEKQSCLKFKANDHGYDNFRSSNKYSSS
Assay: Binding activity to ET-B receptor on bovine cerebellum membrane
Assay type: tissue-based

Compound | IC50 [nM]
CC[C@H](C)[C@H](NC(=O)[C@H](CC(=O)O)NC(=O)[C@H](CC(C)C)NC(=O)[C@H](Cc1c[nH]cn1)NC(=O)[C@H](C)NC(=O)[C@H](Cc1ccccc1)NC(=O)[C@H](Cc1ccc(O)cc1)NC(=O)[C@@H](NC(=O)[C@H](Cc1c[nH]c2ccccc12)NC(=O)[C@@H]1CC(=O)NCC(=O)N[C@@H](CC(N)=O)C(=O)N[C@@H](Cc2c[nH]c3ccccc23)C(=O)N[C@@H](Cc2c[nH]cn2)C(=O)NCC(=O)N[C@@H]([C@@H](C)O)C(=O)N[C@@H](C)C(=O)N2CCC[C@H]2C(=O)N1)C(C)C)C(=O)N[C@H](C(=O)N[C@@H](Cc1c[nH]c2ccccc12)C(=O)O)[C@@H](C)CC | 0.24
CC[C@H](C)[C@H](NC(=O)[C@@H](NC(=O)[C@H](CC(=O)O)NC(=O)[C@H](CCC(N)=O)NC(=O)[C@H](Cc1c[nH]cn1)NC(=O)[C@H](C)NC(=O)[C@H](Cc1ccccc1)NC(=O)[C@H](Cc1ccc(O)cc1)NC(=O)[C@H](CC(C)C)NC(=O)[C@H](Cc1c[nH]c2ccccc12)NC(=O)[C@@H]1CC(=O)NCC(=O)N[C@@H](CC(N)=O)C(=O)N[C@@H](Cc2c[nH]c3ccccc23)C(=O)N[C@@H](Cc2c[nH]cn2)C(=O)NCC(=O)N[C@@H]([C@@H](C)O)C(=O)N[C@@H](C)C(=O)N2CCC[C@H]2C(=O)N1)C(C)C)C(=O)N[C@@H](Cc1c[nH]c2ccccc12)C(=O)O | 3.8
CC[C@H](C)[C@H](NC(=O)[C@H](CC(=O)O)NC(=O)[C@H](CC(C)C)NC(=O)[C@H](Cc1c[nH]cn1)NC(=O)[C@H](C)NC(=O)[C@H](Cc1ccc(O)cc1)NC(=O)[C@H](Cc1ccc(O)cc1)NC(=O)[C@@H](NC(=O)[C@H](Cc1c[nH]c2ccccc12)NC(=O)[C@@H]1CC(=O)NCC(=O)N[C@@H](CC(N)=O)C(=O)N[C@@H](Cc2c[nH]c3ccccc23)C(=O)N[C@@H](Cc2c[nH]cn2)C(=O)NCC(=O)N[C@@H]([C@@H](C)O)C(=O)N[C@@H](C)C(=O)N2CCC[C@H]2C(=O)N1)C(C)C)C(=O)N[C@H](C(=O)N[C@@H](Cc1c[nH]c2ccccc12)C(=O)O)[C@@H](C)CC | 2.5
